The list shows a part of the results, in another mix than the full data. The source made the active and inactive calls.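 Rule for the calls: active = mean inhibition across replicates above the hit cutoff set in the primary screen (cut at about 30% in these data); inactive = the rest.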
Biological target: (Lyso)-N-acylphosphatidylethanolamine lipase (Mus musculus) (UniProt Q8VD66)
Assay: mouse ABHD4 hydrolase blockers, triplicate – biochemical, fluorescence polarization, confirmation (AID 720658);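 note: 0% = wild-type ABHD4 with DMSO and 100% = catalytically dead S159A mutant with DMSO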
Settings: purified mABHD4, FP-Rh probe fluorescence polarization; at 8.92 µM; stronger effect = higher value
How it was run: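 Also added: Rhodamine-tagged fluorophosphonate probe FP-Rh / Assay system: mouse wild-type ABHD4 enzyme / Evaluation: % inhibition relative to DMSO and S159A mutant controls / Medium: HEPES pH 7.0 buffer with NaCl and Pluronic F-127 / Detection: fluorescence polarization at 525 nm excitation, 598 nm emission / Timing: 45 min compound-enzyme pre-incubation, then 60 min probe incubation, 25 °C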

Amino acid sequences for entries named in this document (tags omitted).
UniProt Q8VD66, whole entry: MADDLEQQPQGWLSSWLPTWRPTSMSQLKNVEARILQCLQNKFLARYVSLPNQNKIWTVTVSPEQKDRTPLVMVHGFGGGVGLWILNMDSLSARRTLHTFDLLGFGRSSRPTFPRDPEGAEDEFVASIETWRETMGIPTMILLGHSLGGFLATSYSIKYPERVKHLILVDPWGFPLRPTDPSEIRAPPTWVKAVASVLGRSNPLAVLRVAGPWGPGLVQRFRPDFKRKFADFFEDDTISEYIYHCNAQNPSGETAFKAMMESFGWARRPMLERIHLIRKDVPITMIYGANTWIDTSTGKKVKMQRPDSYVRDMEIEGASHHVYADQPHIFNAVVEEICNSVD

SMILES | inhibition
CCCCCCCCCCCCCCCC1C[N+](C)(C)CCOP(C)(=O)O1 (stereo unspecified) | active: 43.7%
